Assay: Stability study of injectable trace element composition in parenteral nutrition admixtures (assay test for zinc, copper, selenium, manganese)
Type: physicochemical
Conditions: acceptance criteria 90.0-110.0%
Excerpt: In order to establish stability data for parenteral nutrition admixed with the injectable compositions of trace elements, we conducted a stability study of injectable trace element composition (trace elements injectable composition, USP) in parenteral nutrition admixtures (assay test); a pH study of parenteral nutrition (PN) admixtures upon addition of injectable trace element composition (trace elements injectable composition, USP); a compatibility study of injectable trace element composition (trace elements injectable composition, USP) in parenteral nutrition admixtures; and a reduced inoculation antimicrobial effectiveness study for injectable trace element composition (trace elements injectable composition, USP) in parenteral nutrition admixtures. […]

[1] = Injectable trace element composition in CLINIMIX solution stored at 2° C. to 8° C.
[2] = Injectable trace element composition in KABIVEN solution stored at 2° C. to 8° C.

Substance: manganese sulfate monohydrate
- Assay Day 0 [1]: 105.0%
- Assay Day 5 [1]: 97.2%
- Assay Day 7 [1]: 98.9%
- Assay Day 10 [1]: 101.6%
- Assay Day 14 [1]: 106.8%
- Assay Day 0 [2]: 100.7%
- Assay Day 5 [2]: 95.0%
- Assay Day 7 [2]: 92.1%
- Assay Day 10 [2]: 102.5%
- Assay Day 14 [2]: 97.9%
